Patent US6316594A, “Antimicrobial peptide isolated from parasilurus asotus and its uses” (priority 1998, dated 2001)

System: human erythrocytes
Assay: Hemolytic activity assay
Settings: peptide 200 μg/ml
Description: The hemolytic activity of the antimicrobial peptide was assayed as described by Park et al. (9).

CC[C@H](C)[C@H](NC(=O)CN)C(=O)NCC(=O)N[C@@H](C)C(=O)N[C@H](C(=O)N[C@@H](CC(C)C)C(=O)N[C@@H](CCCCN)C(=O)N[C@H](C(=O)N[C@@H](CC(C)C)C(=O)N[C@H](C(=O)N[C@H](C(=O)NCC(=O)N[C@@H](CC(C)C)C(=O)N1CCC[C@H]1C(=O)N[C@@H](C)C(=O)N[C@@H](CC(C)C)C(=O)N[C@H](C(=O)N[C@@H](CO)C(=O)N[C@@H](Cc1c[nH]c2ccccc12)C(=O)N[C@H](C(=O)N[C@@H](CCCCN)C(=O)N[C@@H](CCCNC(=N)N)C(=O)N[C@@H](CCCCN)C(=O)N[C@@H](CCCNC(=N)N)C(=O)N[C@@H](CCC(N)=O)C(=O)N[C@@H](CCC(N)=O)C(N)=O)[C@@H](C)CC)[C@@H](C)CC)[C@@H](C)O)[C@@H](C)O)C(C)C)C(C)C [melittin, reference compound]
hemolysis: 99.2%
